# In paper PMC4394509:
# B1: CENP-T-EGFP (natural protein)
# chain: MADHNPDSDSTPRTLLRRVLDTADPRTPRRPRSARAGARRALLETASPRKLSGQTRTIARGRSHGARSVGRSAHIQASGHLEEQTPRTLLKNILLTAPESSILMPESVVKPVPAPQAVQPSRQESSCGSLELQLPELEPPTTLAPGLLAPGRRKQRLRLSVFQQGVDQGLSLSQEPQGNADAS[about 40 residues not printed]AVDVGAFLRDLRDTSLAPPNIVLEDTQPFSQPMVGSPNVYHSLPCTPHTGAEDAEQAAGRKTQSSGPGLQKNSPGKPAQFLAGEAEEVNAFALGFLSTSSGVSGEDEVEPLHDGVEEAEKKMEEEGVSVSEMEATGAQGPSRVEEAEGHTEVTEAEGSQGTAEADGPGASSGDEDASGRAASPESASSTPESLQARRHHQFLEPAPAPGAAVLSSEPAEPLLVRHPPRPRTTGPRPRQDPHKAGLSHYVKLFSFYAKMPMERKALEMVEKCLDKYFQHLCDDLEVFAAHAGRKTVKPEDLELLMRRQGLVTDQVSLHVLVERHLPLEYRQLLIPCAYSGNSVFPAQ
# B2: EGFP-CENP-M, Q9NSP4 1-180 (natural protein)
# chain: MSVLRPLDKLPGLNTATILLVGTEDALLQQLADSMLKEDCASELKVHLAKSLPLPSSVNRPRIDLIVFVVNLHSKYSLQNTEESLRHVDASFFLGKVCFLATGAGRESHCSIHRHTVVKLAHTYQSPLLYCDLEVEGFRATMAQRLVRVLQICAGHVPGVSALNLLSLLRSSEGPSLEDL
# B3: CENP-M-EGFP, Q9NSP4 1-180 (natural protein)
# chain: B2 chain
# Target: H3.1-mCherry (human)
# Assay: FRET or BRET; acceptor-bleaching FRET at kinetochores of transfected human cells (HeLa, HEp-2, U2OS), in vivo or in situ; donor EGFP, acceptor mCherry; E_FRET of a bleached region compared with EVAR of an unbleached region
# Settings: remark: other sources report otherwise
mean E FRET % [%],ΔE % [%],Binder
3.03,4.45,B1
3.58,4.99,B2
2.91,3.15,B3
